Measured values reported in patent US8603980B2, “Glutamate receptor antagonists and methods of use” (The Johns Hopkins University, priority 2007, dated 2013).
Like-named read-outs stand apart in the source and are kept apart here.

Tested on: human platelets
Assay: Platelet activation by FACS (PAC-1 antibody binding or surface P-selectin)
Format: cell-based

Structure (SMILES) | TRAP induced platelet activation (PAC-1 antibody binding) (moderate TRAP (5 μM), platelets pre-incubated with substance) | TRAP induced platelet activation (PAC-1 antibody binding) | platelet activation in response to TRAP after NHE inhibition | resting platelet activation (PAC-1 antibody binding)
N=C(N)NC(=O)c1nc(Cl)c(N)nc1N [amiloride] | reduces |  |  | 
Cc1onc(O)c1C[C@H](N)C(=O)O [AMPA, alpha(α)-amino-3-hydroxy-5-methyl-4-isoxazolepropionic acid] |  | dose dependently increases | restores | no affect
